The values that follow come from patent US20070111265A1, “Ligands for mineralocorticoid receptor (MR) and methods for screening for or designing MR ligands” (Van Andel Research Institute, priority 2005, published 2007).

One experiment has as its target T1, MR LBD (Homo sapiens, UniProt P08235, C808S).
T1 construct: made in house; host or cells: E. coli BL21DE3 (pET24a)
T1 sequence (P08235 727-984 C808S): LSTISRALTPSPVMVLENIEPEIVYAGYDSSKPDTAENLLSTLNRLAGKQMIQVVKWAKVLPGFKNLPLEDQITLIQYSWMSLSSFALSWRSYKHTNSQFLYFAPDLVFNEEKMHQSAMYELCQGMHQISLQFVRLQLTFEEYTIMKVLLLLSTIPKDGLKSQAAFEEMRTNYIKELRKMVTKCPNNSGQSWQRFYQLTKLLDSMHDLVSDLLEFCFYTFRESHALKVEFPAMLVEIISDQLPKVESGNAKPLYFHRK
Description: Peptide profiling: unlabeled peptides compete off SRC2-3 binding to MR (FIG. 1C). The settings on record: unlabeled peptide 500 nM; 20 nM corticosterone or aldosterone. The method, then:
The cofactors that contain a pair of LXXLL motifs with strong binding affinity to MR are boxed. All peptides have identical length of 15 residues except for SRC1-4 motif, which terminates at position +7 relative to the first leucines (L+1) in the LXXLL motif, and for the AR peptides and the corepressor motifs, which are longer than the coactivator motifs. Sequences of peptides are listed in experimental procedures.
The binding of various peptide motifs to MR was determined by AlphaScreen assays using a hexahistidine detection kit from Perkin-Elmer. MR proteins were prepared as 6×His-GST fusion proteins for the assays.
The unlabeled peptides that were used in FIG. 1C are listed below in Table 2:
MR is the least studied member among the classical steroid hormone receptors and its physiological coactivators have not been clearly documented. To gain insights into which coactivator is physiologically relevant to MR, the inventors performed peptide profiling experiments using a panel of 38 unlabeled peptides to compete off the binding of the third LXXLL motif of SRC2 (also known as TIF2/GRIP1) to MR. […] The strong binding of the SRC1-4 motif and the PGC1 motifs is consistent with previous studies of the binding of LXXLL motifs to oxosteroid receptors (Hultman et al., 2005; Wu et al., 2004).

The target in another experiment is T2, MR (Homo sapiens, UniProt P08235).
T2 construct: receptor expression vector (pRS vector) encoding full-length GR and MR respectively (ATCC); host or cells: Cos-7
Description: IC50 (µM). The source says:
Table printed on a drawing sheet, FIG. 3D
Head of the field: IC50 (µM)
The patent's description of the figure: FIG. 3.
First copying reader's note: The head of the sequence column numbers the residue positions relative to the first leucine of the LXXLL motif; the last two rows are protein fragments given as residue ranges.

Each structure is given as a SMILES string. pIC50: −log10 of the molar value.

`CC(C)C[C@H](NC(=O)[C@H](CC(C)C)NC(=O)[C@H](CC(C)C)NC(=O)[C@H](CCCCN)NC(=O)[C@H](CCCCN)NC(=O)[C@H](CC(C)C)NC(=O)[C@H](CC(C)C)NC(=O)[C@H](CO)NC(=O)[C@@H]1CCCN1C(=O)[C@H](CCC(=O)O)NC(=O)[C@H](CCC(=O)O)NC(=O)[C@H](C)N)C(=O)N[C@@H](C)C(=O)N1CCC[C@H]1C(=O)N[C@@H](C)C(=O)O` [PGC1α-1]: the “inhibition of SRC2-3 binding to MR” value on MR LBD is listed as “most potent competitors”. The molecule also showed a pIC50 against MR of 6.05.
On MR, `CC[C@H](C)[C@H](NC(=O)[C@H](CCCCN)NC(=O)[C@H](Cc1cnc[nH]1)NC(=O)[C@H](CCCNC(=N)N)NC(=O)[C@H](CCC(=O)O)NC(=O)[C@@H](N)[C@@H](C)O)C(=O)N[C@@H](CC(C)C)C(=O)N[C@@H](Cc1cnc[nH]1)C(=O)N[C@@H](CCCNC(=N)N)C(=O)N[C@@H](CC(C)C)C(=O)N[C@@H](CC(C)C)C(=O)N[C@@H](CCC(N)=O)C(=O)N[C@@H](CCC(=O)O)C(=O)N[C@@H](CO)C(=O)N[C@@H](CO)C(=O)O` [SRC1-2] gave a pIC50 of 5.85.
As to `CC(C)C[C@H](NC(=O)[C@H](CC(C)C)NC(=O)[C@H](Cc1ccc(O)cc1)NC(=O)[C@H](CCCNC(=N)N)NC(=O)[C@H](CC(C)C)NC(=O)[C@H](CC(C)C)NC(=O)[C@H](CCC(N)=O)NC(=O)[C@H](Cc1cnc[nH]1)NC(=O)[C@H](CC(=O)O)NC(=O)[C@H](CCCCN)NC(=O)[C@@H](N)CO)C(=O)N[C@@H](CC(=O)O)C(=O)N[C@@H](CCCCN)C(=O)N[C@@H](CC(=O)O)C(=O)N[C@@H](CCC(=O)O)C(=O)O` [SRC1-3], the pIC50 against MR was 5.80. This pIC50 and that of the molecule before are within 0.2 log units of each other.
Same read-out and setting: as for `CC[C@H](C)[C@H](NC(=O)[C@H](CCCCN)NC(=O)[C@H](Cc1cnc[nH]1)NC(=O)[C@H](CCCCN)NC(=O)[C@H](CCC(=O)O)NC(=O)[C@@H](N)CCCCN)C(=O)N[C@@H](CC(C)C)C(=O)N[C@@H](Cc1cnc[nH]1)C(=O)N[C@@H](CCCNC(=N)N)C(=O)N[C@@H](CC(C)C)C(=O)N[C@@H](CC(C)C)C(=O)N[C@@H](CCC(N)=O)C(=O)N[C@@H](CC(=O)O)C(=O)N[C@@H](CO)C(=O)N[C@@H](CO)C(=O)O` [SRC2-2], the figure is 5.66.

The term pIC50 denotes −log10 of the IC50, conventionally taken in molar units. A high value points to a small IC50.
